Here are results for 1 compound from BindingDB's records for doi:10.1016/S1074-5521(01)00067-9 (University of California San Francisco, 2001).

By UniProt entry, the sequences of proteins in these tests, tags left out. Where a name states a change or a piece, a line headed by the entry shows the natural chain unless it says otherwise.
UniProt P0A884: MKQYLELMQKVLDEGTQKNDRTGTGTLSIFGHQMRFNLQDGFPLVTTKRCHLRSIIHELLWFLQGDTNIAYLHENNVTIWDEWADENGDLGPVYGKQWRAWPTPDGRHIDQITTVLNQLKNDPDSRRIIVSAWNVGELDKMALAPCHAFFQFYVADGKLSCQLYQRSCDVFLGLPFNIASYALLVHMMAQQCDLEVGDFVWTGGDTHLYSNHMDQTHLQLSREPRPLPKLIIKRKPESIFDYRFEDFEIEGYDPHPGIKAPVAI

The experiment addresses Thymidylate synthase (Escherichia coli (strain K12), UniProt P0A884). Kind of experiment: Inhibition Assay. From the text:
Affinity assay of specificities of thymidylate synthase (TS)inhibitors

What is called IC50 is the concentration needed to halve the response being measured.

As to `CN(C)c1cccc2c(S(=O)(=O)N[C@@H](Cc3ccc(OS(=O)(=O)c4cccc5c(N(C)C)cccc45)cc3)C(=O)O)cccc12` [Dansyl derivative, DDT, 1L], 5 µM corresponded to half-maximal inhibition (IC50).
